{"source": "paper PMC5706069", "about": "(2017)", "key": {"[1]": {"molecular_target": "human MOR (Homo sapiens, UniProt P35372)", "assay": "[35S]GTPγS binding assay using CHO-hMOR cell membranes", "assay_type": "biochemical", "settings": "read-out: functional activity [35S]GTPγS MOR % stim"}, "[2]": {"molecular_target": "human DOR (Homo sapiens, UniProt P41143)", "assay": "Competition binding assay, [3H]diprenorphine, CHO-hDOR cell membranes", "settings": "ratio of Ki values"}, "[3]": {"molecular_target": "human KOR (Homo sapiens, UniProt P41145)", "assay": "Competition binding assay, [3H]HS665, CHO-hKOR cell membranes", "settings": "ratio of Ki values"}}}
{"smiles": "CO[C@@]12CCC[C@]3(C)Oc4c(O)ccc5c4[C@@]31CCN(C)[C@@H]2C5", "note": "[Compound 4a, 5β,17-Dimethyl-4,5α-epoxy-3-hydroxy-14β-methoxymorphinan]", "values": [{"measurement": "Emax", "setting": "[1]", "value": "104 ± 3", "unit": "%"}, {"measurement": "selectivity DOR/MOR", "setting": "[2]", "value": 38}, {"measurement": "selectivity KOR/MOR", "setting": "[3]", "value": 23}]}
